Assay results from patent publication US20020115689A1, “Combination therapy for treating neurodegenerative disease” (priority 1999, published 2002).

Tested on: COX-1 and COX-2
Test: human whole blood assay (Chan, et al., JPET 290:551-560, 1999) for COX-1 and COX-2 inhibition
Format: cell-based
Conditions: approximate COX-2 selectivity ratio = IC50 for inhibition of COX-1 divided by IC50 for inhibition of COX-2, human whole blood assay
Text: The ability of a compound to inhibit COX-1 and/or COX-2 may be characterized by reference to a wide variety of assays. […] Moreover, for purposes of this patent application a COX-2 selectivity ratio is defined by the IC50 for the inhibition of COX-1 divided by the IC50 for the inhibition of COX-2 as measured by the Chan, et al., human whole blood assay.

Cc1onc(-c2ccccc2)c1-c1ccc(S(N)(=O)=O)cc1 [Valdecoxib, 4-[5-methyl-3-phenyl-isoxazol-4-yl]benenesulfonamide]
COX-1/COX-2 ratio of the IC50: 30.
